# Source: patent US20130289023A1, “METHOD FOR TREATING BRAIN TUMOR” (priority 2012, published 2013)
# Tests used:
# GBM8401 cells = test: MTT cell viability assay in GBM8401; conditions: 10 μM, 72 hr
# Experimental: To examine the cytotoxicity of anti-psychotic drugs on malignant glioma, GBM8401 cells were treated with 21 anti-psychotic drugs at 10 μM, respectively, for 72 hr.
# [1] = tested on: U87MG sphere cells (cancer stem-like cells); conditions: 10 and 20 μM, 24 hr
substance,measurement,setting,value
fluphenazine,cytotoxicity compared with the other anti-psychotic drugs,GBM8401 cells,more effective in cytotoxicity
same,cell viability,[1],significantly reduced
